{"source": "patent EP3733658B1", "about": "“PRENYLATED BENZOPYRANES AS PPAR AGONISTS” (Universitat de València, priority 2017, dated 2019)", "system": "ob/ob mice", "test": "Treatment of ob/ob mice: blood glucose", "details": "mouse, in vivo, 10 mg/kg/day", "source_text": "[…]. […] […].", "data": [{"molecule": "CN(CCOc1ccc(CC2SC(=O)NC2=O)cc1)c1ccccn1", "note": "(stereo not drawn) [Rosiglitazone, rosiglitazone, reference compound]", "values": [{"measurement": "glucose blood level, day 0 (before treatment)", "result": 217, "unit": "mg/dL"}, {"measurement": "glucose blood level after 4 days", "setting": "po", "result": 135, "unit": "mg/dL"}, {"measurement": "reduction of glucose blood levels compared to day 0", "setting": "po", "result": 32, "unit": "%"}]}]}
